N-glyco inh: N-linked glycosylation inhibition. D54 ERlucT glycosylation luciferase reporter, 24 h; percent of 100 nM tunicamycin response. 360,000 tested, 0.23% active. AID 588692. reporter increase, % at 12.5 µM;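 active means mean luciferase reporter signal, scaled so untreated is 0 and the glycosylation-blocking control 100, at or above a set limit in every replicate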;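 further: luciferase carries N-glycosylation sites so blocking glycosylation raises the light; 0% = median of neutral control wells and 100% = median of 100 nM tunicamycin wells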
Yeast UUG start: modulators of yeast start codon fidelity, primary screen, whole organism, S. cerevisiae, single point, plate reader | AID 602363, 2012 | actives 0.13% (n = 350,000) | activity score, % at 18.7 µM | S. cerevisiae UUG-firefly luciferase reporter, luminescence/redox ratio;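 active means replicate mean at a twofold rise or more, about +100% in these data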;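 further: firefly luciferase made from a UUG start codon reports start codon fidelity; reporter light over untreated wells divided by growth signal over untreated wells; some hits fall short of that in this replicate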
Cneo AK release: Cryptococcus neoformans lysis via adenylate kinase release; C. neoformans lysis, adenylate kinase release luminescence, 4 h; normalised: neutral wells 0, clomiphene wells 100; lysis activity, % at 15 µM; 360,000 tested, 0.2% active; AID 651654;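 active means mean lysis activity across replicates of at least 80%, whatever share of replicates individually reach that level; inactive means mean lysis activity below 80%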
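Assay system: Cryptococcus neoformans yeast cells / Dosing: single-point compound dose / Timing: 4 h at 37 °C static, read 1 h later / Measured by: luminescence of released adenylate kinase using an AK detection reagent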
miR-122 sensor: miR-122 inhibition in Huh7 cells; Huh7 miR-122 Renilla luciferase sensor, 48 h; neutral wells = 0, positive control = 100; activation (reporter increase), % at 12.5 µM; 340,000 tested, 0.3% active; AID 602342;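 active means mean replicate activation score at least 90 and every replicate individually at or above 90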;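 further: higher luciferase means less miR-122 activity so hits act as miR-122 inhibitors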
C2C12 statin: suppression of simvastatin myotoxicity; C2C12 myotubes + simvastatin, ATP luminescence, 48 h; scaled: DMSO 0, geranylgeraniol control 100; rescue of ATP level, % at 7.49 µM; 330,000 tested, 0.78% active;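 active means mean ATP rescue above about 67%, or every replicate alone reaching that limit, limit read from the data, passing the limit was not always enough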;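 further: myotubes were challenged with 10 µM simvastatin during compound exposure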
The depositor's hits bear a star; nt = not tested or not shown; ! = a repeat was not active; [ ] = dose if it differs, or a comment. Hits are enriched below; roughly 1.2% of the tested compounds scored in any of these assays.

[1] Cc1ccc(S(=O)(=O)NCC(=O)OCC(=O)c2ccc(Br)s2)cc1
[2] Cc1ccc(S(=O)(=O)NCC(=O)OCC(=O)c2cccs2)cc1
[3] COc1cc(C(=O)OCCN2CCOCC2)ccc1O
[4] C[C@@H]1CN([C@H](C)CO)C(=O)Cc2cc(NC(=O)NC3CCCCC3)ccc2O[C@@H]1CN(C)Cc1ccc(Oc2ccccc2)cc1
[5] COc1ccc(Cl)cc1NC(=O)CN(C)CC(=O)Nc1cc(OC)c(OC)c(OC)c1
[6] O=C(CNC(=O)c1ccc(Br)o1)NCC1CCCCC1
[7] O=C(Nc1ccccc1F)N[C@H]1CC[C@H](CCNS(=O)(=O)c2ccc(Cl)cc2)O[C@H]1CO
[8] C[C@H]1CCCCO[C@H](CN(C)Cc2ccncc2)[C@@H](C)CN([C@@H](C)CO)C(=O)c2cc(NC(=O)CCCN(C)C)ccc2O1
[9] C[C@@H]1CCCCO[C@H](CN(C)Cc2ccc(C(F)(F)F)cc2)[C@H](C)CN([C@@H](C)CO)C(=O)c2cc(NC(=O)c3ccncc3)ccc2O1
[10] C[C@@H]1CCCCO[C@@H](CN(C)Cc2ccncc2)[C@@H](C)CN([C@@H](C)CO)C(=O)c2cc(NC(=O)c3ccncc3)ccc2O1

Screen / compound no. | 1 | 2 | 3 | 4 | 5 | 6 | 7 | 8 | 9 | 10
N-glyco inh | 0.8 | -2.8 | 1.7 | nt | 32.5* | 1.5 | nt | nt | nt | nt
Yeast UUG start | 7.9 | -6.7 | -1.4 | -12.5 | -8.2 | -14.5 | -0.3 | 5.3 | 9.0 | nt
Cneo AK release | -0.5 | -2.1 | -1.0 | 0.6 | -2.1 | 1.3 | 50.1 | 98.3* | -0.1 | 88.9*
miR-122 sensor | -2.4 | -9.2 | -1.6 | -3.7[16.7 µM] | nt | -1.0 | -9.2[16.7 µM] | 6.5[16.7 µM] | -6.0[16.7 µM] | -0.8[16.7 µM]
C2C12 statin | 5.2 | 124.8* | 108.5* | -278.9 | -5.6 | 4.6 | 2.2 | -17.4 | 76.4* | nt

[11] C[C@@H]1CN([C@@H](C)CO)C(=O)c2cc(NS(=O)(=O)c3cccs3)ccc2O[C@@H](C)CCCCO[C@@H]1CN(C)Cc1ccc(C(F)(F)F)cc1
[12] C[C@H]1CCCCO[C@@H](CN(C)Cc2ccncc2)[C@@H](C)CN([C@@H](C)CO)C(=O)c2cc(NC(=O)c3ccncc3)ccc2O1
[13] C[C@@H]1CCCCO[C@@H](CN(C)Cc2ccc(C(F)(F)F)cc2)[C@H](C)CN([C@H](C)CO)C(=O)c2cc(NC(=O)c3ccncc3)ccc2O1
[14] C[C@@H]1CCCCO[C@@H](CN(C)Cc2ccncc2)[C@@H](C)CN([C@@H](C)CO)C(=O)c2cc(NC(=O)CCCN(C)C)ccc2O1
[15] CN1C(=O)c2cc(NC(=O)c3cccc(F)c3)ccc2OC[C@H]2O[C@H](CC(=O)NCc3ccccc3)CC[C@@H]21
[16] COc1ccc(NC(=O)N2C[C@H](O)COC[C@H]3O[C@@H](CC(=O)NCc4ccccc4OC)CC[C@@H]32)cc1
[17] COc1ccc(CN(C)C[C@H]2OCCCC[C@@H](C)Oc3ccc(NC(=O)c4ccccc4)cc3C(=O)N([C@H](C)CO)C[C@@H]2C)cc1
[18] C[C@@H]1CCCCO[C@@H](CN(C)Cc2ccc(C(F)(F)F)cc2)[C@H](C)CN([C@@H](C)CO)C(=O)c2cc(NC(=O)c3ccncc3)ccc2O1
[19] CCCNC(=O)N1C[C@@H](C)[C@H](OC)CN(C)C(=O)c2ccc(NS(=O)(=O)CC(F)(F)F)cc2OC[C@@H]1C
[20] CC1CCN(c2ncnc3c2cnn3Cc2ccc(Cl)cc2)CC1

Screen / compound no. | 11 | 12 | 13 | 14 | 15 | 16 | 17 | 18 | 19 | 20
N-glyco inh | nt | nt | nt | nt | nt | nt | -0.8 | nt | nt | -4.2
Yeast UUG start | 3.4 | nt | 7.2 | 12.6 | 19.4 | 13.4 | 12.7 | 28.1 | nt | -10.3
Cneo AK release | 0.5 | -1.2 | -2.4 | 55.6 | -6.2 | 2.0 | 101.9*! | 4.9 | -2.8 | -2.9
miR-122 sensor | 0.3[16.7 µM] | 0.4[16.7 µM] | -2.5[16.7 µM] | 0.8[16.7 µM] | 25.0[16.7 µM] | -1.0[16.7 µM] | -3.8 | -10.8[16.7 µM] | nt | -0.5
C2C12 statin | 115.8* | nt | 27.7 | -1.2 | 11.5 | -3.9 | -5.4 | 120.7* | -9.7 | 171.7*

[21] CO[C@@H]1CN(C)C(=O)c2cc(NS(=O)(=O)c3cccc(C)c3)ccc2OC[C@H](C)NC[C@H]1C
[22] OCCN(CCCn1c(C(F)(F)F)nc2ccccc21)c1nc(CN2CCCCC2)cs1
[23] OCCN(CCCn1c(-c2ccncc2)nc2ccccc21)c1nc(CN2CCCCC2)cs1
[24] CCNC(=O)C[C@H]1CC[C@@H]2[C@@H](COc3ccc(NC(=O)c4cccs4)cc3C(=O)N2C)O1
[25] COc1ccc(OC)c(S(=O)(=O)N2CCC(C(=O)Nc3ccccc3)CC2)c1
[26] O=C1c2ccccc2-c2onc3ccc(Oc4ccccc4)c1c23
[27] CCOC(=O)C(C(=O)OCC)c1cc(Br)c2noc3c2c1C(=O)c1ccccc1-3

Screen / compound no. | 21 | 22 | 23 | 24 | 25 | 26 | 27
N-glyco inh | nt | 0.1 | 2.3 | nt | -1.1 | -8.4 | 17.4
Yeast UUG start | -1.7 | -13.7 | -12.5 | -22.4 | -13.0 | 20.4 | nt
Cneo AK release | 0.0 | 0.5 | 0.5 | -1.1 | -1.6 | 2.7 | nt
miR-122 sensor | 22.5[16.7 µM] | -2.5 | 1.4 | 2.8[16.7 µM] | -4.2 | -11.3 | 1.7
C2C12 statin | 4.1 | 0.8 | 66.4* | -4.9 | 91.4* | 100.2* | nt

Copied from above, nos. 1–2
[1] Cc1ccc(S(=O)(=O)NCC(=O)OCC(=O)c2ccc(Br)s2)cc1
[2] Cc1ccc(S(=O)(=O)NCC(=O)OCC(=O)c2cccs2)cc1

Screen / compound no. | 1 | 2
N-glyco inh | 0.8 | -2.8
Yeast UUG start | 7.9 | -6.7
Cneo AK release | -0.5 | -2.1
miR-122 sensor | -2.4 | -9.2
C2C12 statin | 5.2 | 124.8*

Screening results from PubChem BioAssay.
